Data taken from US20260256778A1 (AbbVie Inc., priority 2023, published 2026).
In brackets after ≈: the same amount, converted by molar mass.

Key:
[1] = Solubility of upadacitinib in different aqueous media at 37° C.; assay type: physicochemical; settings: 50 mM citrate buffer, pH 5.96, aqueous buffer, thermodynamic from solid, pH nominal 6.01, final 5.96, 37° C.
[2] = system: non-segmental vitiligo (NSV); settings: 22 mg QD, Week 24

For `CC[C@@H]1CN(C(=O)NCC(F)(F)F)C[C@@H]1c1cnc2cnc3[nH]ccc3n12` [Upadacitinib, (3S,4R)-3-ethyl-4-(3H-imidazo[1,2-a]pyrrolo[2,3-e]pyrazin-8-yl)-N-(2,2,2-trifluoroethyl) pyrrolidine-1-carboxamide], the solubility [1] was 196 ± 1 µg/mL (≈ 515 µM) and the “CFB in VitiQoL Total Score; LSMEAN (SE)” value [2] was −6.6 (2.56).
